In the experiment the test system is MV4-11. In words: Antiproliferative activity against human MV411 cells after 4 days by Celltiiter-Glo luminescence cell viability assay. Format: functional, cell-based.

With `COc1ccc(-c2csc(Nc3ccc(O)c(C(=O)O)c3)n2)cc1C`, the Activity result is “Dose-dependent effect”.

The record behind these values is ChEMBL document CHEMBL4118120, “Identification of a novel selective small-molecule inhibitor of protein arginine methyltransferase 5 (PRMT5) by virtual screening, resynthesis and biological evaluations” (Bioorg Med Chem Lett, 2018).
